The values that follow come from patent US20110135657A1 (published 2011).

The target in the experiment is human FGF21 receptor (FGF21R): full length human FGFR1c and full length human β-Klotho co-expressed at the … (human, UniProt P11362; Q86Z14). In words: cell-based or functional assay.

B1: 16H7 variant, heavy chain V24F + I83T (antibody, human IgG2, lambda)
heavy: QVTLKESGPVLVKPTETLTLTCTFSGFSLNNARMGVSWIRQPPGKALEWLAHIFSNDEKSYSTSLKSRLTISKDTSKSQVVLTMTNMDPVDTATYYCARSVVTGGYYYDGMDVWGQGTTVTVSSASTKGPSVFPLAPCSRSTSESTAALGCLVKDYFPEPVTVSWNSGALTSGVHTFPAVLQSSGLYSLSSVVTVPSSNFGTQTYTCNVDHKPSNTKVDKTVERKCCVECPPCPAPPVAGPSVFLFPPKPKDTLMISRTPEVTCVVVDVSHEDPEVQFNWYVDGVEVHNAKTKPREEQFNSTFRVVSVLTVVHQDWLNGKEYKCKVSNKGLPAPIEKTISKTKGQPREPQVYTLPPSREEMTKNQVSLTCLVKGFYPSDIAVEWESNGQPENNYKTTPPMLDSDGSFFLYSKLTVDKSRWQQGNVFSCSVMHEALHNHYTQKSLSLSPGK
light: SYVLTQPPSVSVAPGQTARITCGGNNIGSESVHWYQQKPGQAPVLVVYDDSDRPSGIPERFSGSNSGNTATLTISRVEAGDEADYYCQVWDGNSDHVVFGGGTKLTVLGQPKANPTVTLFPPSSEELQANKATLVCLISDFYPGAVTVAWKADGSPVKAGVETTKPSKQSNNKYAASSYLSLTPEQWKSHRSYSCQVTHEGSTVEKTVAPTECS
B1: the “EC50 (nM), Erk-phosphorylation, human adipocyte assay” value was 0.37 nM.
